# Results: patent US9040516B2, “Uracil derivative and use thereof for medical purposes” (SUMITOMO DAINIPPON PHARMA CO., LTD., priority 2011, dated 2015)
# The chains behind the UniProt entries cited, without tags or fusion partners. Residues count along the entry.
# UniProt P08246, 30-267 limits assumed: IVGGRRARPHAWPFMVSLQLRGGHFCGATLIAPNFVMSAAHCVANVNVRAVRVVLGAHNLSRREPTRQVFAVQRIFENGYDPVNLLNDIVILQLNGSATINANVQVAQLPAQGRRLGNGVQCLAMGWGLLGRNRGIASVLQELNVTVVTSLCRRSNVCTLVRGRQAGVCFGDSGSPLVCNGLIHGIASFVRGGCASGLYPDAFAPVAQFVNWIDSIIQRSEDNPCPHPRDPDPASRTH
# Target: human neutrophil elastase (Homo sapiens, UniProt P08246)
# Assay: Inhibitory action 2 against human neutrophil elastase (Test Example 2; fluorogenic substrate MeOSuc-AAPV-AMC, buffer with 400 mM NaCl, 0.2 mg/ml BSA)
# Conditions: read-out: IC50 value (compound concentration required for 50% inhibition of human neutrophil elastase), 37° C.
# Procedure: Assay buffer (0.4 unit/ml HNE (human neutrophil elastase, available from Elastin Products Company), 200 mM HEPES [N-(2-hydroxyethyl)piperazine-N′-(2-ethanesulfonic acid)], pH 7.5, 400 mM NaCl, 0.2 mg/ml BSA (bovine serum albumin)) 100 μl, water for injection 20 μl and 1% DMSO (dimethyl sulfoxide) solution of the present compound 20 μl were mixed in a 96 well plate and the mixed solutions were pre-incubated at 37° C. for five minutes. After pre-incubation, MeOSuc-AAPV-AMC (methoxysuccinyl-alanyl-alanyl-prolyl-valyl-aminomethyl cumaride (available from Sigma Aldrich Corp.) solution as fluorogenic substrate (which was dissolved in 10% DMSO solution so as to adjust to 0.5 mM) 40 μl was added to the above-prepared mixed solution so as to initiate the reaction, and the mixture was incubated at 37° C. for five minutes. The fluorescence intensity of AMC was measured at an excitation wavelength of 380 nm and a fluorescence wavelength of 460 nm and the inhibition ratio was determined.
row,IC50 [nM],SMILES
1,7.3,Cc1c(-c2ccnn2-c2ccc(C#N)cc2)c(=O)n(C2CCN(CC(F)(F)F)CC2)c(=O)n1-c1cccc(C(F)(F)F)c1
2,27.2,CC(=O)N1CCN(Cc2cnn(-c3ccc(C#N)cc3)c2-c2c(C)n(-c3cccc(C(F)(F)F)c3)c(=O)n(C)c2=O)CC1
3,14,Cc1c(-c2c(S(=O)(=O)C3CCN(C)CC3)cnn2-c2ccc(C#N)cc2)c(=O)n(C)c(=O)n1-c1cccc(C(F)(F)F)c1
4,14.2,Cc1c(-c2ccnn2-c2ccc(C#N)cc2)c(=O)n([C@H](C)CCNC2CCCC2)c(=O)n1-c1cccc(C(F)(F)F)c1
5,16.3,Cc1nnc(-c2ccc(C#N)cc2)n1-c1c(C)n(-c2cccc(C(F)(F)F)c2)c(=O)n([C@H](C)CS(C)(=O)=O)c1=O
6,28.6,CCn1c(=O)c(-n2c(CC(=O)NC)nnc2-c2ccc(C#N)cc2)c(C)n(-c2cccc(C(F)(F)F)c2)c1=O
7,7.4,Cc1c(-c2ccnn2-c2ccc(C#N)cc2)c(=O)n([C@@H]2CCCN(C)C2)c(=O)n1-c1cccc(C(F)(F)F)c1
8,41,Cc1c(-c2c(CN3CCCC3)cnn2-c2ccc(C#N)cc2)c(=O)n(C)c(=O)n1-c1cccc(C(F)(F)F)c1
9,13.5,CCn1c(=O)c(-c2c(S(N)(=O)=O)cnn2-c2ccc(C#N)cc2)c(C)n(-c2cccc(C(F)(F)F)c2)c1=O
10,14.5,CCn1c(=O)c(-n2c(CC(=O)N3CCOCC3)nnc2-c2ccc(C#N)cc2)c(C)n(-c2cccc(C(F)(F)F)c2)c1=O
11,24.3,Cc1c(-c2c(CCC(N)=O)cnn2-c2ccc(C#N)cc2)c(=O)n(C)c(=O)n1-c1cccc(C(F)(F)F)c1
12,21,CCn1c(=O)c(-n2c(-c3ccc(C#N)cc3)nnc2C2CCN(C)CC2)c(C)n(-c2cccc(C(F)(F)F)c2)c1=O
13,9,Cc1c(-c2ccnn2-c2ccc(C#N)cc2)c(=O)n([C@H](C)CC(N)=O)c(=O)n1-c1cccc(C(F)(F)F)c1
14,14.3,Cc1c(-c2c(CN3CCOCC3)cnn2-c2ccc(C#N)cc2)c(=O)n(C)c(=O)n1-c1cccc(C(F)(F)F)c1
15,39.8,Cc1nnc(-c2ccc(C#N)cc2F)n1-c1c(C)n(-c2cccc(C(F)(F)F)c2)c(=O)n(C(C)C)c1=O
16,5.1,Cc1c(-c2ccnn2-c2ccc(C#N)cc2)c(=O)n([C@H](C)CNC2CCCC2)c(=O)n1-c1cccc(C(F)(F)F)c1
